{"source": "patent US7160853B2", "about": "“Protocol for paracentesis” (priority 2000, dated 2007)", "tested_on": "cirrhotic patients with tense ascites", "test": "Clinical comparison of terlipressin and albumin in patients treated by paracentesis", "format": "in vivo, human", "conditions": "for Aldosteronaemia: plasma aldosterone; for Aldosteronaemia / Reninaemia: marker of blood volume; for Reninaemia: plasma renin", "from_the_text": "Four were subsequently excluded prior to treatment.", "data": [{"substance": "Albumin: 20% human albumin, derived from donated human blood, given by infusion", "values": [{"measurement": "Survival at 3 months", "setting": "3 months", "value": 89, "unit": "%"}, {"measurement": "Blood pressure", "setting": "4–6 days later", "value": "79 ± 3", "unit": "mmHg"}, {"measurement": "Creatininaemia", "setting": "4–6 days later", "value": "71 ± 6"}, {"measurement": "Natraemia", "setting": "4–6 days later", "value": "132 ± 1", "unit": "mmol/L"}, {"measurement": "Weight", "setting": "4–6 days later", "value": "69 ± 4", "unit": "kg"}, {"measurement": "Aldosteronaemia", "setting": "4–6 days later", "value": "1420 ± 292", "unit": "pg/mL"}, {"measurement": "Reninaemia", "setting": "4–6 days later", "value": "223 ± 74", "unit": "pg/mL"}, {"measurement": "Blood pressure", "setting": "Before", "value": "81 ± 4", "unit": "mmHg"}, {"measurement": "Creatininaemia", "setting": "Before", "value": "74 ± 4"}, {"measurement": "Natraemia", "setting": "Before", "value": "134 ± 1", "unit": "mmol/L"}, {"measurement": "Weight", "setting": "Before", "value": "72 ± 5", "unit": "kg"}, {"measurement": "Aldosteronaemia", "setting": "Before", "value": "1149 ± 324", "unit": "pg/mL"}, {"measurement": "Reninaemia", "setting": "Before", "value": "194 ± 47", "unit": "pg/mL"}, {"measurement": "Effectiveness in treating hypovolaemia", "setting": "as indicated by the values for reninaemia and aldosteronaemia", "value": "equally effective"}, {"measurement": "Period between paracentesis treatment and discharge from hospital", "setting": "n = 10 per group", "value": "5.3 ± 0.3", "unit": "days"}]}]}
